Measurements from ChEMBL document CHEMBL1153281, “Synthesis and evaluation of aniline headgroups for alkynyl thienopyrimidine dual EGFR/ErbB-2 kinase inhibitors” (Bioorg Med Chem Lett, 2009).

Protein sequences, listed by entry. Tags and fused reporters are not part of them.
UniProt P00533, whole entry: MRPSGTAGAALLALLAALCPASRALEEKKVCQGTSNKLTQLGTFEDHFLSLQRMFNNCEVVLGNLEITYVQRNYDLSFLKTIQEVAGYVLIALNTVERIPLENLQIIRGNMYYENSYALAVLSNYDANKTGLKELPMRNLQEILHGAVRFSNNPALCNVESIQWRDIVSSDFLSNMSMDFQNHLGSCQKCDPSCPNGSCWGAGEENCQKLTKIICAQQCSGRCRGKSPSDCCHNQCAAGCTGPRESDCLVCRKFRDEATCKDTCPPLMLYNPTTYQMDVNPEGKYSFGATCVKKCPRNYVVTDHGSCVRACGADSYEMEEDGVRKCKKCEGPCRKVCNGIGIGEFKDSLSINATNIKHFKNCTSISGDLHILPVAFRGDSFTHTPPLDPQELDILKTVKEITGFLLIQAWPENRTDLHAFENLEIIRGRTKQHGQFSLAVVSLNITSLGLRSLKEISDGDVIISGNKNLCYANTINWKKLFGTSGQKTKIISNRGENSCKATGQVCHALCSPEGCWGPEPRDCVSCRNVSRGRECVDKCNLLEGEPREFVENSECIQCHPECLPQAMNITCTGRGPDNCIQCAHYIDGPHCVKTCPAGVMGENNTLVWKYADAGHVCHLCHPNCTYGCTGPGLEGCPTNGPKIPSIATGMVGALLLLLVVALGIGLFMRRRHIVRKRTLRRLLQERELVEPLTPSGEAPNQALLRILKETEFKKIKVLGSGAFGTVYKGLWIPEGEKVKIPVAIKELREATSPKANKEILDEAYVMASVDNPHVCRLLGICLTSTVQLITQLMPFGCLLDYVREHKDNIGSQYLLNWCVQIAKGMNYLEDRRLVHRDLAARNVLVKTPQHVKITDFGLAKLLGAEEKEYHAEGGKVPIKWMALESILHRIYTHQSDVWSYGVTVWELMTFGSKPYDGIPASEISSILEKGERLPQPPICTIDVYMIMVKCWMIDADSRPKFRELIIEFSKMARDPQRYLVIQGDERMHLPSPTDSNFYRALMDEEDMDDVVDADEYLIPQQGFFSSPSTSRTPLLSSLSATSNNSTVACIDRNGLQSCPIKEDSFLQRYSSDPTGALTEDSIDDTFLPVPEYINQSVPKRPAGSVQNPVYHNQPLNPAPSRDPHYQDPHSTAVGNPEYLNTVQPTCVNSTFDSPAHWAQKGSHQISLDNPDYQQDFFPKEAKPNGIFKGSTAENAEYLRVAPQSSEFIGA
UniProt P04626, whole entry: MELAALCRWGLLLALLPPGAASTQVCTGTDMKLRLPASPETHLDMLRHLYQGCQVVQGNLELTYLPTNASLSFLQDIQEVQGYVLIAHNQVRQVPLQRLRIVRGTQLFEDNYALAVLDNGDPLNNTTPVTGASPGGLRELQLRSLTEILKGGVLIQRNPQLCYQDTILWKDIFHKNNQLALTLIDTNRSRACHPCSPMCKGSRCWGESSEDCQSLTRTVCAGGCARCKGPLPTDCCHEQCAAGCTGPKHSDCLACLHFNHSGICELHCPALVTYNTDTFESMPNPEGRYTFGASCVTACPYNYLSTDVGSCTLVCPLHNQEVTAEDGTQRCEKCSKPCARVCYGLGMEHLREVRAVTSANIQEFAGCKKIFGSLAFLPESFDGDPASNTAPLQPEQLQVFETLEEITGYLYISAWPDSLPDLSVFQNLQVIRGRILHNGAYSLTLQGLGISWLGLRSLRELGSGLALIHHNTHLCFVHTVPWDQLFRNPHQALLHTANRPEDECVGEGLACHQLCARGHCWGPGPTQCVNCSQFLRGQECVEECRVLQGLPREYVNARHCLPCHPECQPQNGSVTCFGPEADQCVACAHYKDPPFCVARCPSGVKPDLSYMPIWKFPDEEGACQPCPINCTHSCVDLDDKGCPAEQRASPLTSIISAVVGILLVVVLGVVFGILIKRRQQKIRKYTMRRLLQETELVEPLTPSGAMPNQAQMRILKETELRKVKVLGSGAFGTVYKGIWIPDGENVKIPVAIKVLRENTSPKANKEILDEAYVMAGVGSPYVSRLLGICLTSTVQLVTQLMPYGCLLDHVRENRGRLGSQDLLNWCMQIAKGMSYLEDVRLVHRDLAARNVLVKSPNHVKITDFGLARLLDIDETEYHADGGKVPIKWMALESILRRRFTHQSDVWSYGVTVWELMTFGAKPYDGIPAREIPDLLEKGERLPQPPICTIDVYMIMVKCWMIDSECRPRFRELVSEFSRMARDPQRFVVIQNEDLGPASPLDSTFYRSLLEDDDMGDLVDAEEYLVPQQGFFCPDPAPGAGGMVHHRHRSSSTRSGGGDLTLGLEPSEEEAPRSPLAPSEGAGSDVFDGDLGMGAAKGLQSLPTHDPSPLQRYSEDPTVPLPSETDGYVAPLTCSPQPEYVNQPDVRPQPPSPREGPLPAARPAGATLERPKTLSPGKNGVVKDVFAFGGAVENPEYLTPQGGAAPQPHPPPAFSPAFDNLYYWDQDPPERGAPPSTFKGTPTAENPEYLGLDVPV

Legend:
[1] = target: Epidermal growth factor receptor (Homo sapiens, UniProt P00533)
[2] = target: Receptor tyrosine-protein kinase erbB-2 (Homo sapiens, UniProt P04626)
BT-474 = test: cells; format: functional, cell-based; settings: Homo sapiens, BT-474, 72 h

Structure (SMILES)	IC50 [1] [µM]	IC50 [2] [µM]	IC50 (BT-474) [µM]
O=C(O[C@H]1CN[C@H](C#Cc2cc3ncnc(Nc4ccc5c(cnn5Cc5cccc(F)c5)c4)c3s2)C1)N1CCOCC1	0.03	0.03	0.03
O=C(O[C@H]1CN[C@H](C#Cc2cc3ncnc(Nc4ccc(OCc5cccc(F)c5)c(Cl)c4)c3s2)C1)N1CCOCC1 [GW869810X]	0.08	–	–
